Results published in patent US5747458A, “Urokinase receptor ligands” (Chiron Corporation, priority 1995, dated 1998).

Chains of the proteins cited; added tags and fusions are not shown. Residues count along the entry.
UniProt Q03405, 23-335 limits assumed: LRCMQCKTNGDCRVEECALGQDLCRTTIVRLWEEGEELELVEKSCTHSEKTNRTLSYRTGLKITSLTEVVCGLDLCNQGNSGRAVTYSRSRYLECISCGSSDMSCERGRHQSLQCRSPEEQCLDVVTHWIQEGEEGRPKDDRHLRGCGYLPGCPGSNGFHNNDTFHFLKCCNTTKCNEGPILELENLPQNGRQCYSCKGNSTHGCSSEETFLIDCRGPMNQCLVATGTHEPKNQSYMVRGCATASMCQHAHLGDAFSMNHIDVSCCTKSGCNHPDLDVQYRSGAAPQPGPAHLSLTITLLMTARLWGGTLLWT

Biological target: human urokinase receptor (Homo sapiens, UniProt Q03405)
Assay: human urokinase receptor radioligand competition assay
Details: for IC50: labeled ligand: epitope tagged EGF-like domain of human urokinase
From the text: Compounds of the invention may be screened for activity following any generally suitable assay for urokinase activity or inhibition. A particularly useful assay described in Goodson et al., Proc Natl Acad Sci USA (1994) 91:7129 (incorporated herein by reference). One may substitute fragments of urokinase for the intact molecule (e.g., one may use the EGF-like binding domain alone, without the enzymatically-active portion of uPA). In general, the compounds should be tested against uPA receptors derived from the species to be treated, as some species specificity is known to exist.
Compounds prepared as described in Example 1 above were screened in a human urokinase receptor radioligand competition assay, as described in Goodson et al., Proc Natl Acad Sci USA (1994) 91:7129 (incorporated herein by reference), except that the labeled ligand used was an epitope tagged version of the EGF-like domain of human urokinase, expressed and purified from recombinant yeast.

| IC50 | Compound | further results |
| --- | --- | --- |
| > 10000 nM | COc1ccc(C(NC(=O)CN(CC(N)=O)C(=O)CN(C(=O)CNCCc2ccc(O)cc2)C2CCCCC2)c2ccc(OC)cc2)cc1 | % Inhibition (Concentration 0.2 μM): 19.3% |
| 1380 nM | COc1ccc(C(NC(=O)CN(CC(N)=O)C(=O)CN(C(=O)CNCCc2ccccc2)c2ccc3c(c2)CCC3)c2ccc(OC)cc2)cc1 | – |
| 120 nM | COc1ccc(C(NC(=O)CN(C(=O)CN(C(=O)C(C)NCCc2ccc(O)cc2)c2ccc3c(c2)CCC3)C(C)C(N)=O)c2ccc(OC)cc2)cc1 (centres unmarked) | % Inhibition (Concentration 0.1 μM): 27.2% |
| 700 nM | C#CCNCC(=O)N(CC(=O)N(CC(N)=O)CC(=O)NC(c1ccc(OC)cc1)c1ccc(OC)cc1)c1ccc2c(c1)CCC2 | % Inhibition (Concentration 0.2 μM): 32.8% |
| 33 nM | C#CCNCC(=O)N(CC(=O)N(CC(N)=O)CC(=O)NC(c1ccc(OC)cc1)c1ccc(OC)cc1)c1ccc2ccccc2c1 | – |
| 930 nM | NC(=O)CN(CC(=O)NC(c1ccccc1)c1ccccc1)C(=O)CN(C(=O)CNCCc1ccc(O)cc1)c1ccc2c(c1)CCC2 | – |
| 105 nM | COc1ccc(C(NC(=O)CN(CC(N)=O)C(=O)CN(C(=O)C(C)NCCc2ccc(O)cc2)c2ccc3c(c2)CCC3)c2ccc(OC)cc2)cc1 (centres unmarked) | – |
| 440 nM | COc1ccc(CCNCC(=O)N(CC(=O)N(CC(N)=O)CC(=O)NC(c2ccc(OC)cc2)c2ccc(OC)cc2)c2ccc3c(c2)CCC3)cc1 | % Inhibition (Concentration 1 μM): 72.5% |
| 1800 nM | COc1ccc(C(NC(=O)CN(CC(N)=O)C(=O)CN(C(=O)CNCCc2ccc(O)cc2)c2ccccc2)c2ccc(OC)cc2)cc1 | – |
| 770 nM | COc1ccc(C(NC(=O)CN(CC(N)=O)C(=O)CN(C(=O)CNCc2ccccc2)c2ccc3c(c2)CCC3)c2ccc(OC)cc2)cc1 | % Inhibition (Concentration 0.2 μM): 43.5% |
| 2600 nM | COc1ccc(C(NC(=O)CN(CC(N)=O)C(=O)CN(C(=O)CNCCc2c(O)cc(O)cc2O)c2ccc3c(c2)CCC3)c2ccc(OC)cc2)cc1 | – |
| 200 nM | COc1ccc(C(NC(=O)CN(CC(N)=O)C(=O)CN(C(=O)CNCCc2ccc(O)cc2)c2ccc3c(c2)CCC3)c2ccc(OC)cc2)cc1 | – |
| 760 nM | COc1ccc(C(NC(=O)CN(CC(N)=O)C(=O)CN(C(=O)CNCCCCO)c2ccc3c(c2)CCC3)c2ccc(OC)cc2)cc1 | % Inhibition (Concentration 1 μM): 51.4% |
| 10000 nM | COc1ccc(C(NC(=O)CN(CC(N)=O)C(=O)CN(CCc2ccccc2)C(=O)CNCCc2ccc(O)cc2)c2ccc(OC)cc2)cc1 | % Inhibition (Concentration 2.5 μM): 24.1% |
| 1900 nM | COc1ccc(C(NC(=O)CN(CC(N)=O)C(=O)CN(C(=O)CNCCc2ccc(O)cc2)c2ccc(-c3ccccc3)cc2)c2ccc(OC)cc2)cc1 | % Inhibition (Concentration 0.2 μM): 36.6% |
